Data on one molecule can be found in ChEMBL document CHEMBL5380862, “Unsymmetrical Phosphodiesters as GPR84 Antagonists with High Blood Exposure for the Treatment of Lung Inflammation” (J Med Chem, 2023).

Type in all cases: functional, cell-based
Test [1] relates to Neutrophil. Nature of the test: Inhibition of cell migration in 3-hydroxydodecanoic acid-stimulated mouse CD11bpositive Ly6Gpositive neutrophils at 0.1 to 1 uM incubated for 1.5 hrs by flow cytometric analysis. The conditions noted are these: dose 0.1-1 µM.
Test [2] concerns Monocyte. Description: Inhibition of cell migration in 3-hydroxydodecanoic acid-stimulated mouse CD11bpositive Ly6Cpositive monocytes at 1 uM incubated for 1.5 hrs by flow cytometric analysis. A general note: Flow cytometry measures light scatter and fluorescence of single cells or particles in a stream.
Test [3] has as its system Monocyte. Description: Inhibition of cell migration in 3-hydroxydodecanoic acid-stimulated mouse CD11bpositive Ly6Cpositive monocytes at 0.1 uM incubated for 1.5 hrs by flow cytometric analysis.
For test [4], the system named is Neutrophil. Description: Inhibition of cell migration in 6-n-octylaminoracil-stimulated mouse CD11bpositive Ly6Gpositive neutrophils at 0.1 to 1 uM incubated for 1.5 hrs by flow cytometric analysis. The conditions noted are these: dose 0.1-1 µM.
The subject of test [5] is Monocyte. Description: Inhibition of cell migration in 6-n-octylaminoracil-stimulated mouse CD11bpositive Ly6Cpositive monocyte at 0.1 to 1 uM incubated for 1.5 hrs by flow cytometric analysis. The conditions noted are these: dose 0.1-1 µM.

Activity calls are given as the source filed them. The rule behind the calls is not given here.

For `O=c1nc(OC[C@@H]2COCCO2)cc2n1CCc1cc(C#CC3CC3)ccc1-2`, the inhibition result in test [1], in test [2], in test [4] and in test [5] was “Active” throughout. The inhibition result in test [3] was “inactive”.
